Measured values from article PMC4829425.

Chains of the proteins cited; added tags and fusions are not shown. Lines headed by an entry give the natural chain unless they say otherwise; changes in a name come on top.
UniProt P35968: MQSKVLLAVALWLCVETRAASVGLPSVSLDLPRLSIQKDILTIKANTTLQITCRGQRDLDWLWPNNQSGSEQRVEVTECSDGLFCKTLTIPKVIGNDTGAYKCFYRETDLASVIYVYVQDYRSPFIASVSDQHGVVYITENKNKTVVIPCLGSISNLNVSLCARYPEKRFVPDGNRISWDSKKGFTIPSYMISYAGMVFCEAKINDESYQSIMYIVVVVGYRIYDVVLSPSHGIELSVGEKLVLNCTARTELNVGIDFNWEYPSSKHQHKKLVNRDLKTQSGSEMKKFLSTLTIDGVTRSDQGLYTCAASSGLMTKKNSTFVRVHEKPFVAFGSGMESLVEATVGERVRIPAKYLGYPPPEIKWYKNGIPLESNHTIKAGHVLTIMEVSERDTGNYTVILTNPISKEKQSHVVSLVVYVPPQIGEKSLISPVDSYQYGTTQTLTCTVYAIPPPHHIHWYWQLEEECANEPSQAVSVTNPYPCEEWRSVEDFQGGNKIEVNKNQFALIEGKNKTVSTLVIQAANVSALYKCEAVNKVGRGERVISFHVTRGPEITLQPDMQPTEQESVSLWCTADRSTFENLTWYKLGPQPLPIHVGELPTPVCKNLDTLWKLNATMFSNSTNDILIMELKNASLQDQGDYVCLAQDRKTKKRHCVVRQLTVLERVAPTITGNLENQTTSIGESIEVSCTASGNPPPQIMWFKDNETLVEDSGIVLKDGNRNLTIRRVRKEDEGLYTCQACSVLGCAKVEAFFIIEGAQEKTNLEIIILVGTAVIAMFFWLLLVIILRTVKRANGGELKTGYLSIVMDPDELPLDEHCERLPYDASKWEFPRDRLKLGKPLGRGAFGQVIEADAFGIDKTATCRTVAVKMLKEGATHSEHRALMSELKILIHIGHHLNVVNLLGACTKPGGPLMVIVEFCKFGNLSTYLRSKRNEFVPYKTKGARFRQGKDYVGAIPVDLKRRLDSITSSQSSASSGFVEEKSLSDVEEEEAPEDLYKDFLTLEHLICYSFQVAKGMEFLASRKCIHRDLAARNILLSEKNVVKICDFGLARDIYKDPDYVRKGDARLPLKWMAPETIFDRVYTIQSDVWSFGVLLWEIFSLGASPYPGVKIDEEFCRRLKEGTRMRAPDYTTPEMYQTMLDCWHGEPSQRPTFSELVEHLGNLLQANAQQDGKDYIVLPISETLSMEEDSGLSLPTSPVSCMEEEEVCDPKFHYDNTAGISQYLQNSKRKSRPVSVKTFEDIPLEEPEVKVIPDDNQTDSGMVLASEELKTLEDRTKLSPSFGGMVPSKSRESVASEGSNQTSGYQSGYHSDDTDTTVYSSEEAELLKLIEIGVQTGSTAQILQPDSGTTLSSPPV

Target: full length wild-type human VEGFR-2 (human) (UniProt P35968)
Assay: cross-linking; CHO cells expressing full length VEGFR-2, starved 24 hr (no ligand), cell surface cross-linking with 2 mM BS3 for 30 min at room temperature, Western blot with anti-VEGFR-2

**Q.** How did the stoichiometry N turn out when “full length wild-type human VEGFR-2 (a stretch of the chain, chain not printed) (receptor; other documents disagree on this pair)” was run?
**A.** The stoichiometry N was 2.
